Data published in patent US4389343A, “Immunopotentiating peptides from thymus” (Hoffmann-La Roche Inc., priority 1981, dated 1983).

Test system: Candida albicans ATCC 10231
Assay: protective activity against opportunistic infections in immunosuppressed mice
Assay type: in vivo
Settings: female ddY mice infected with Candida albicans 24 hours after last treatment
Procedure: The compounds of formula I were tested for protective activity against opportunistic infections in immunosuppressed mice. Female ddY mice (6 weeks old) weighing about 25 g were pretreated daily for eight days with 5-fluorouracil (5-FU) (25 mg/kg/day, i.p.) and with thymosin α1or with compounds of formula I (i.p.) at varying dosages. The mice were then infected with Candida albicans ATCC 10231 (1×10^5 cells or more) at 24 hours after the last treatment. One control group was administered 5-FU and saline solution and a second control group received neither 5-FU nor a thymic polypeptide prior to infection with Candida albicans. The number of animals surviving eight days after infection with Candida albicans and 15 days after infection with Candida albicans is presented in Table IV.

[1] = 0.4 μg/kg/day i.p. daily for eight days with 5-FU 25 mg/kg/day i.p.
[2] = 4 μg/kg/day i.p. daily for eight days with 5-FU 25 mg/kg/day i.p.
[3] = 40 μg/kg/day i.p. daily for eight days with 5-FU 25 mg/kg/day i.p.
[4] = 0.04 μg/kg/day i.p. daily for eight days with 5-FU 25 mg/kg/day i.p.

Row | Substance | Survivors at Day 8 [1] | Survivors at Day 15 [1] | Survivors at Day 8 [2] | Survivors at Day 15 [2] | Survivors at Day 8 [3] | Survivors at Day 15 [3] | Survivors at Day 8 [4] | Survivors at Day 15 [4]
1 | Thymosin β8: polypeptide isolated from calf thymus Fraction 5, 4,518 daltons, 39 amino acid residues, NH2-terminus acetyl alanine (ADKPDLGEINSFDKAKLKKTETQEKNTLPTKETIEQEKQ; thymosin beta-8 N-terminal acetyl; UniProt P21752 2-40, looked up, fragment) | 9/9 | 9/9 | 8/9 | 8/9 | 7/9 | 7/9 | – | –
2 | Thymosin β9: polypeptide from fresh frozen calf thymus, identical to thymosin β8 plus --Ala--LysOH at the COOH-terminus, 4,717 daltons, 41 amino acids (ADKPDLGEINSFDKAKLKKTETQEKNTLPTKETIEQEKQAK; not fully specified; Thymosin beta-9; UniProt P21752 2-42, looked up) | 7/10 | 6/10 | 3/10 | 3/10 | 4/10 | 4/10 | 4/10 | 4/10
